Results: US20240174727A1, “LONG-ACTING NATRIURETIC PEPTIDES AND USES THEREOF” (Eli Lilly and Company, priority 2022, published 2024)

The compounds below were run against T1, rat NPRA (Rattus norvegicus, UniProt P18910) (assay: Rat NPRA cGMP activity assay (HTRF) in HEK293 cells overexpressing NPRA). Settings: cGMP Assay (EC50, pM) w/Casein rNPRA, assay buffer with 0.1% casein.
T1 construct: Full-Length cDNA Cloning and Generation of Cell Lines Overexpressing Natriuretic Peptide Receptors (NPRs); expressed in transfected cells; host or cells: Jump-in T-Rex HEK293 cells, pJTI R4 CMV-TO MCS pA vector, tetracycline induction
T1 sequence (P18910 29-1057): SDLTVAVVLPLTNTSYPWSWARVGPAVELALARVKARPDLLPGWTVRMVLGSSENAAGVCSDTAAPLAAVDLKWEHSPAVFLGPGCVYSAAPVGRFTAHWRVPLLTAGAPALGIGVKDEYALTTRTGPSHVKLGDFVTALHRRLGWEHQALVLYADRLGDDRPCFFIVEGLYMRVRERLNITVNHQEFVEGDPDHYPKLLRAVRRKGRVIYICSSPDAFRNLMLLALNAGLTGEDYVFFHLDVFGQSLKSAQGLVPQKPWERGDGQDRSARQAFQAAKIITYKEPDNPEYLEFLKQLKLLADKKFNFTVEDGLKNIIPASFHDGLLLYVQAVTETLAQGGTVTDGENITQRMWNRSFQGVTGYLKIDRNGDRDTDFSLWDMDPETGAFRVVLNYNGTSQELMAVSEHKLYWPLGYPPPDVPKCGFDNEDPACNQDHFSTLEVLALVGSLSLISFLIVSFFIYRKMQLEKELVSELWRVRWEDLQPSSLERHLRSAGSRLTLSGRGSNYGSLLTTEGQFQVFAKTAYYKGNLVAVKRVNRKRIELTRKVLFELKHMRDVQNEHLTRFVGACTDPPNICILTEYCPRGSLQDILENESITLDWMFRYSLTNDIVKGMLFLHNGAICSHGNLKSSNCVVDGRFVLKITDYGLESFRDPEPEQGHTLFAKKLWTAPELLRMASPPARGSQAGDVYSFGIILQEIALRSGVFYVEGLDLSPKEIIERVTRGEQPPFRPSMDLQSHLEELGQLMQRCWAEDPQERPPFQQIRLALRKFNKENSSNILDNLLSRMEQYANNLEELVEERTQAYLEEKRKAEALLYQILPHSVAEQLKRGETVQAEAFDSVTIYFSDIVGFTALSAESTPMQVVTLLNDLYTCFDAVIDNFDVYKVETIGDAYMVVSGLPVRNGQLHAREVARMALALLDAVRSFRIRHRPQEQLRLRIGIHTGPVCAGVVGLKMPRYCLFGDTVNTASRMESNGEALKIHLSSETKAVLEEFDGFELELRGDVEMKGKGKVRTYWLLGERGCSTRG
Type: cell-based
Protocol: All sequences were verified by full-length sequencing performed by ACGT DNA Sequencing Services (Wheeling, IL). The target cDNA was cloned into pJTI R4 CMV-TO MCS pA vector and then co-transfected with pJT1R4 Int vector into Jump-in™ T-Rex™ HEK293 cells for mammalian inducible expression using Jump-in™ T-Rex™ HEK293 kit and Lipofectamine LTX and Plus Reagent following manufacturer's protocols, as briefly described below.
Jump-in™ T-Rex™ HEK293 cells were plated in a BioCOAT® poly-D-lysine coated 6-well plate (Becton Dickinson, cat no. 354413) at 1 million cells/well in 2 mL culture medium and incubated for 18 h at 37° C. and 5% CO2 to 50-70% confluence. A cDNA mix was made in a 50 mL tube by adding 1.5 μg target cDNA, 1.5 μg pJT1R4 Int vector, 3 μL Plus Reagent, and 300 μL Opti-MEM I sequentially into the tube. A reagent mix was made in a separate 50 mL tube by adding 7.5 μL Lipofectamine LTX into 300 μL Opti-MEM I. The mixtures were incubated for 5 min at room temperature. The cDNA mix was then transferred into the reagent mix, mixed well, and incubated for additional 30 min at room temperature. A 500 μL of cDNA/Lipofectamine complex was then transferred to the wells of the cell plate in which the culture medium was changed to 2 mL of transfection medium containing DMEM with 4.5 g/L D-glucose supplemented with 10% FBS-HI and 20 mM HEPES. Transfected cells were cultured for 48 h in an incubator at 37° C. and 5% CO2. A subclone or pool from each overexpressing cell line was maintained in culture medium with the addition of 2 mg/mL G418 sulfate for the clone selection based on its built-in resistance to G418 sulfate for at least 3 weeks with medium changed every 2-3 days.
NPRs were overexpressed in T-Rex™ HEK293 cells following the induction with 300 ng/mL tetracycline in culture medium for 48 h. Induced cell lines in an exponential growth phase were treated with 0.05% trypsin-EDTA for a few seconds at room temperature, harvested in cell medium containing FBS to neutralize the trypsin, counted, and cryopreserved at the density of 2 million cells/mL in cell preservation solution containing FBS-HI with 5% DMSO. Cryopreserved cells were stored at −80° C. for a few days prior to transferring to a liquid nitrogen tank. Induced cell lines were then used for suspension assays to measure the activity of polypeptides to stimulate cGMP production in cGMP assays or for the preparation of cell membranes to measure the binding activity of polypeptides in competitive radioligand binding assays, as described below.
Test polypeptides were added starting at 10 μM concentration and at 10-fold decreasing concentrations to obtain 8-point concentration-response curves (i.e., 10 μM to 1 pM). The quantity of cGMP generated was detected using HTRF® technology and normalized to maximum amount produced by 100 nM amidated rat ANP and the minimum amount produced by assay buffer. Detailed steps are outlined below.
Stock solutions of test polypeptides (2 mM) dissolved in DMSO were first diluted 100-fold in assay buffer containing HBSS with Ca^2+ and Mg^2+, 5 mM HEPES, 0.5 mM IBMX, and 0.1% BSA or 0.1% casein (pH 7.4). The polypeptides were further serially diluted in 1:10 dilution steps in assay buffer containing 0.1% BSA or 0.1% casein to generate 8-point 2× working stock solutions ranging from 20 μM to […].
A 10 μL cell suspension containing 4000 cells was plated in Costar® half-area white opaque 96-well plates (Corning, cat no. 3693). Then 10 μL of assay buffer (basal activity), 200 nM of amidated rat ANP (maximum activity) or 2× working stock solutions of test polypeptides were transferred into the plate. Final concentration of DMSO in each well was 0.5%. The plate was shaken for 15 sec and then incubated for 40 min at room temperature.
The cGMP generated was measured using cGMP kit following the manufacturer's directions, as described below.

Structure (SMILES)	EC50
CC[C@H](C)[C@@H]1NC(=O)[C@H](CCCNC(=N)N)NC(=O)[C@H](CC(=O)O)NC(=O)[C@H]([C@@H](C)CC)NC(=O)[C@H](CCCNC(=N)N)NC(=O)CNC(=O)CNC(=O)[C@H](Cc2ccccc2)NC(=O)[C@@H](NC(=O)[C@H](CO)NC(=O)[C@H](CO)NC(=O)[C@H](CCCNC(=N)N)NC(=O)[C@@H]2CCCN2C(=O)[C@H](CCCCN)NC(=O)[C@H](CCC(=O)O)NC(=O)CNC(=O)[C@H](CCCCN)NC(=O)[C@H](CCC(=O)O)NC(=O)[C@H](CCCCN)NC(=O)[C@H](CCC(=O)O)NC(=O)[C@H](CCCCN)NC(=O)[C@H](CCC(=O)O)NC(=O)CC[C@H](NC(=O)CCCCCCCCCCCCCCCCCCC(=O)O)C(=O)O)CSSC[C@@H](C(=O)N2CCC[C@H]2C(=O)N[C@@H](CO)C(=O)N[C@@H](Cc2ccccc2)C(=O)N[C@@H](CCCNC(=N)N)C(=O)N[C@@H](Cc2c[nH]cn2)C(=O)NCC(=O)NCC(=O)N2CCC[C@H]2C(=O)N[C@@H](CO)C(=O)N[C@@H](CO)C(=O)NCC(=O)N[C@@H](C)C(=O)N2CCC[C@H]2C(=O)N2CCC[C@H]2C(=O)N2CCC[C@H]2C(=O)N[C@@H](CO)C(N)=O)NC(=O)CNC(=O)[C@H](CC(C)C)NC(=O)CNC(=O)[C@H](CO)NC(=O)[C@H](Cc2ccc(O)cc2)NC(=O)[C@H](Cc2c[nH]cn2)NC(=O)CNC1=O [Example 55]	493 pM
CC[C@H](C)[C@@H]1NC(=O)[C@H](CCCNC(=N)N)NC(=O)[C@H](CC(=O)O)NC(=O)[C@H]([C@@H](C)CC)NC(=O)[C@H](CCCNC(=N)N)NC(=O)CNC(=O)CNC(=O)[C@H](Cc2ccccc2)NC(=O)[C@@H](NC(=O)[C@H](CO)NC(=O)[C@H](CO)NC(=O)[C@H](CCCNC(=N)N)NC(=O)[C@@H]2CCCN2C(=O)[C@H](CCCCN)NC(=O)[C@H](CCC(=O)O)NC(=O)CNC(=O)[C@H](CCCCN)NC(=O)[C@H](CCC(=O)O)NC(=O)[C@H](CCCCN)NC(=O)[C@H](CCC(=O)O)NC(=O)[C@H](CCCCN)NC(=O)[C@H](CCC(=O)O)NC(=O)CC[C@H](NC(=O)CCCCCCCCCCCCCCCCCCC(=O)O)C(=O)O)CSCSC[C@@H](C(=O)N2CCC[C@H]2C(=O)N[C@@H](CO)C(=O)N[C@@H](Cc2ccccc2)C(=O)N[C@@H](CCCNC(=N)N)C(=O)N[C@@H](Cc2c[nH]cn2)C(=O)NCC(=O)NCC(=O)N2CCC[C@H]2C(=O)N[C@@H](CO)C(=O)N[C@@H](CO)C(=O)NCC(=O)N[C@@H](C)C(=O)N2CCC[C@H]2C(=O)N2CCC[C@H]2C(=O)N2CCC[C@H]2C(=O)N[C@@H](CO)C(N)=O)NC(=O)CNC(=O)[C@H](CC(C)C)NC(=O)CNC(=O)[C@H](CO)NC(=O)[C@H](Cc2ccc(O)cc2)NC(=O)[C@H](Cc2c[nH]cn2)NC(=O)CNC1=O [Example 57]	9500 pM
CC[C@H](C)[C@@H]1NC(=O)[C@H](CCCNC(=N)N)NC(=O)[C@H](CC(=O)O)NC(=O)[C@H]([C@@H](C)CC)NC(=O)[C@H](CCCNC(=N)N)NC(=O)[C@H](CCCCN)NC(=O)CNC(=O)[C@H](Cc2ccccc2)NC(=O)[C@@H](NC(=O)[C@H](CO)NC(=O)[C@H](CO)NC(=O)[C@H](CCCNC(=N)N)NC(=O)[C@@H]2CCCN2C(=O)[C@H](CCCCN)NC(=O)[C@H](CCC(=O)O)NC(=O)CNC(=O)[C@H](CCCCN)NC(=O)[C@H](CCC(=O)O)NC(=O)[C@H](CCCCN)NC(=O)[C@H](CCC(=O)O)NC(=O)[C@H](CCCCN)NC(=O)[C@H](CCC(=O)O)NC(=O)CC[C@H](NC(=O)CCCCCCCCCCCCCCCCCCC(=O)O)C(=O)O)CSCSC[C@@H](C(=O)N2CCC[C@H]2C(=O)N[C@@H](CO)C(=O)N[C@@H](Cc2ccccc2)C(=O)N[C@@H](CCCNC(=N)N)C(=O)N[C@@H](Cc2c[nH]cn2)C(=O)NCC(=O)N[C@@H](CO)C(=O)N2CCC[C@H]2C(=O)N[C@@H](CO)C(=O)N[C@@H](CO)C(=O)NCC(=O)N[C@@H](C)C(=O)N2CCC[C@H]2C(=O)N2CCC[C@H]2C(=O)N2CCC[C@H]2C(=O)N[C@@H](CO)C(N)=O)NC(=O)CNC(=O)[C@H](CC(C)C)NC(=O)CNC(=O)[C@H](CO)NC(=O)[C@H](CCC(N)=O)NC(=O)[C@H](CCCN)NC(=O)CNC1=O [Example 134]	192000 pM
